{"source": "patent US20110281933A1", "about": "“METHODS AND COMPOSITIONS FOR THE MANAGEMENT OF CARDIOVASCULAR DISEASE WITH OLIGONUCLEOTIDES” (Saint Louis University, priority 2010, published 2011)", "tested_on": "C57BL/6 mice on 1% cholesterol, 0.5% cholate diet", "assay": "Simvastatin and cholate diet induced liver damage (Example 8)", "conditions": "50 mpk simvastatin vs saline"}
{"smiles": "CCC(C)(C)C(=O)O[C@H]1C[C@@H](C)C=C2C=C[C@H](C)[C@H](CC[C@@H]3C[C@@H](O)CC(=O)O3)[C@H]21", "note": "[simvastatin]", "values": [{"measurement": "reduction of hepatic A1p8b1 levels", "value": "~40", "unit": "%"}]}
